Source: patent US8921546B2, “Imidazolothiazole compounds for the treatment of disease” (Ambit Biosciences Corporation, priority 2006, dated 2014)

Test system: MV4-11 cells
Assay: Cellular proliferation assay (MTS), MV4-11
Conditions: Homo sapiens, MV4-11, 72 h, read-out: Cellular Assay MV-proliferation IC50 (nM)

O=C(Nc1ccc(-c2cn3c(n2)sc2cc(OCCN4CCOCC4)ccc23)cc1)Nc1ccc2c(c1)OCO2 [Compound F3]
IC50: < 10 nM
